Assay results: publication PMC9613624 (Journal of medicinal chemistry, 2022)

System: SW620 cells
Test: Colony formation assay in SW620 cells
Format: cell-based
Settings: 2 weeks, crystal violet

**Q.** For `Nc1ncccc1-c1nc2ccc(-c3ccccc3)nc2n1-c1ccc(C2(N)CCC2)cc1` [ARQ-092, 3-(3-(4-(1-Aminocyclobutyl)phenyl)-5-phenyl-3H-imidazo[4,5-b]pyridin-2-yl)pyridin −2-amine, reference compound], which “inhibition of colony formation (in words)” value is on record?
**A.** comparative ability in inhibiting colony formation
